{"source": "patent US20130183237A1", "about": "(priority 2007, published 2013)", "target": "human plasma derived thrombin (Homo sapiens, UniProt P00734)", "note": "Like-named read-outs stand apart in the source and are kept apart here.", "data": [{"compound": "CC[C@H](C)[C@H](NC(=O)[C@H](CCC(=O)O)NC(=O)[C@H](CCC(=O)O)NC(=O)[C@H](Cc1ccccc1)NC(=O)[C@H](CC(=O)O)NC(=O)[C@H](Cc1ccccc1)NC(=O)[C@@H]1CCCN1C(=O)[C@@H]1CCCN1C(=O)[C@H](C)NC(=O)[C@@H](NC(=O)[C@H](CCCCN)NC(=O)[C@H](Cc1c[nH]cn1)NC(=O)[C@H](CCSC)NC(=O)[C@H](CCCCN)NC(=O)[C@@H]1CCCN1C(=O)[C@@H](N)CCC(=O)O)[C@@H](C)O)C(=O)N1CCC[C@H]1C(=O)N[C@@H](CCC(=O)O)C(=O)N[C@@H](CCC(=O)O)C(=O)N[C@@H](Cc1ccc(O)cc1)C(=O)N[C@@H](CC(C)C)C(=O)N[C@@H](CC(=O)O)C(=O)N[C@@H](CC(=O)O)C(=O)N[C@@H](CCC(=O)O)C(=O)N[C@@H](CO)C(=O)O", "note": "[EP25A22E]", "values": [{"measurement": "Ki", "result": "0.311 ± 0.07", "unit": "nM"}, {"measurement": "IC50", "setting": "pre-incubation time 0 min", "result": 124, "unit": "nM"}, {"measurement": "IC50", "setting": "pre-incubation time 20 min", "result": "13.5 ± 2.08", "unit": "nM"}, {"measurement": "IC50", "setting": "pre-incubation time 30 min", "result": 13.6, "unit": "nM"}]}]}
